Laboratory results from patent US20020198208A1, “MEDICINAL PREPARATION AND PROCESS FOR MANUFACTURING THEREOF” (priority 2000, published 2002).

Experiments:
macrophages = details: inflammatory diseases
[1] = after introduction into organism
[2] = crystalline powder

## Nc1cccc2c(=O)[nH][nH]c(=O)c12.[Na] [Tamerit, 5-amino-2,3-dihydrophthalazine-1,4-dione sodium salt]
macrophages
  duration of selective inactivation of macrophages: 4 to 8 h
[1]
  time to practically complete elimination with expired air and urine: 20 to 60 min
[2]
  solubility in water: easily soluble in water
